## Experimental water solubility values from OPERA 2.9

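OPERA's authors assembled the values from existing databases and did not measure them anew. A listed value is a point estimate from one report or more. Conditions of the individual experiments are not part of the data. The measured form (salt, isomer or mixture) is not always the one drawn. Some upstream entries may be estimates or bounds without being marked so.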

Solubility in water is on a log10 molar scale (set defined at 25 °C).
"n/a" marks a cell with nothing listed here.

| structure (SMILES) | name | log solubility (log10 mol/L) |
|---|---|---|
| O=C(O)CC(C(=O)O)c1ccccc1 (centres undefined) | Butanedioic acid, 2-phenyl- | -1.85 |
| CC1(C)CC(OC(=O)CCCCCCCCC(=O)OC2CC(C)(C)NC(C)(C)C2)CC(C)(C)N1 | Bis(2,2,6,6-tetramethyl-4-piperidyl) sebacate | -4.408 |
| Nc1nc(C2CC2)nc(C(=O)O)c1Cl | n/a | -1.881 |
| CC1(C)S[C@@H]2[C@H](NC(=O)COc3ccccc3)C(=O)N2[C@H]1C(=O)O | Penicillin V | -2.716 |
| COC(=O)C(C)(C)N=NC(C)(C)C(=O)OC | n/a | -1.851 |
| COC(=O)c1ccc(I)cc1S(=O)(=O)[N-]C(=O)Nc1nc(C)nc(OC)n1.[Na+] | Iodosulfuron-methyl-sodium | -1.33 |
| NC(=O)C(=O)N(CCO)N=Cc1ccc([N+](=O)[O-])o1 | n/a | -3.055 |
| COc1cc(OC)n2nc(NS(=O)(=O)c3c(C(F)(F)F)ccnc3OC)nc2n1 | Pyroxsulam | -2.13 |
| N#Cc1ccc(N=C(N)N)cc1 | N''-(4-Cyanophenyl)guanidine | -1.85 |
| CC1CC(C)(C)OC(Cc2ccccc2)O1 (centres undefined) | 2-Benzyl-4,4,6-trimethyl-1,3-dioxane | -2.745 |
| C(=Cc1ccccc1)C=NCCCCCCN=CC=Cc1ccccc1 | N,N'-Dicinnamylidene-1,6-hexanediamine | -3.894 |
| CC(=O)C(N=Nc1ccc([N+](=O)[O-])cc1)C(=O)Nc1ccc2[nH]c(=O)[nH]c2c1 (centres undefined) | n/a | -7.526 |
| CCCCCCCCCc1cc2ccccc2c(S(=O)(=O)[O-])c1CCCCCCCCC.CCCCCCCCCc1cc2ccccc2c(S(=O)(=O)[O-])c1CCCCCCCCC.[Zn+2] | Naphthalenesulfonic acid, dinonyl-, zinc salt (2:1) | -4.788 |
| CC(=O)CC(=O)Nc1ccccc1C | N-(2-Methylphenyl)-3-oxobutanamide | -1.85 |
| CCCCS(=O)(=O)N[C@@H](Cc1ccc(OCCCCC2CCNCC2)cc1)C(=O)O | Tirofiban | -5.143 |
| CCN(CC)c1ccc2cc(-c3nc4cc(Cl)ccc4o3)c(=O)oc2c1 | n/a | -7.488 |
| CCCCCCOC(=O)C(C)C | Hexyl isobutyrate | -3.471 |
| O=C(O)c1cc(Cl)cc(C(=O)O)c1 | 1,3-Benzenedicarboxylic acid, 5-chloro- | -2.84 |
| Cn1cc(C(O)=Nc2ccccc2C2CC2C2CC2)c(C(F)F)n1 (centres undefined) | Sedaxane | -4.37 |
| CC(C)NCC1CCc2cc(CO)c([N+](=O)[O-])cc2N1 (centres undefined) | Oxamniquine | -2.967 |
| CCCCCCCCC(CCCCCC)COc1ccccc1C(N)=O (centres undefined) | 2-[(2-Hexyldecyl)oxy]benzamide | -7.78 |
| Cc1nn(C)c(O)c1C(O)c1ccc(C(F)(F)F)cc1S(C)(=O)=O (centres undefined) | Pyrasulfotole | -1.938 |
| C1CC2C3CC(C2C1)C1(CCCO1)C3 (centres undefined) | Decahydrospiro[furan-2(3H),5'-[4,7]methano[5H]indene] | -5.942 |
| Clc1ccccc1Oc1ccc(Cl)c(Cl)c1Cl | n/a | -6.74 |
| CC(CC=O)CC(C)(C)C (centres undefined) | 3,5,5-Trimethylhexanal | -2.914 |
| CC(=O)OCC1=C(C(=O)O)N2C(=O)[C@@H](NC(=O)[C@H](N)c3ccccc3)[C@H]2SC1 | Cephaloglycin | -3.438 |
| O=[N+]([O-])c1ccc(N=Nc2c(O)ccc3ccccc23)c([N+](=O)[O-])c1 | C.I. Pigment Orange 5 | -7.73 |
| O=C1O[C@@H]2[C@@H](O)[C@H](O)O[C@@H]2[C@H]1O | Glucurolactone | 0.164 |
| CC(C)C(O)(CCC(C)(O)C(=O)O)C(=O)O (centres undefined) | 2,5-Dihydroxy-2-methyl-5-(propan-2-yl)hexanedioic acid | -1.37 |
| N#CC(c1ccc(Cl)cc1)c1c(Cl)cc(-n2ncc(=O)[nH]c2=O)cc1Cl (centres undefined) | Diclazuril | -7.611 |
| CC(=O)C=CC=C(C)CCC=C(C)C | Pseudoionone | -3.297 |
| N[C@H](C(=O)O)[C@H](O)c1ccc(O)c(O)c1 | Droxidopa | -1.144 |
| Oc1nc(C(F)(F)F)nc2nc[nH]c12 | 2-(Trifluoromethyl)-1,7-dihydro-6H-purin-6-one | -2.253 |
| O=C(Oc1cc([N+](=O)[O-])c(Cl)cc1Cl)Oc1cc([N+](=O)[O-])c(Cl)cc1Cl | Bis(2,4-dichloro-5-nitrophenyl) carbonate | -6.813 |
| CCOc1ccccc1C(N)=NO | 2-ethoxy-N-hydroxybenzamidine | -1.793 |
| COC(=O)C(C)(C)c1ccc(Br)cc1 | METHYL 2-(4-BROMOPHENYL)-2,2-DIMETHYLACETATE | -3.777 |

The first 3 entries again:

{"smiles": "O=C(O)CC(C(=O)O)c1ccccc1", "stereo": "centres undefined", "name": "Butanedioic acid, 2-phenyl-", "log solubility (log10 mol/L)": "-1.85"}
{"smiles": "CC1(C)CC(OC(=O)CCCCCCCCC(=O)OC2CC(C)(C)NC(C)(C)C2)CC(C)(C)N1", "name": "Bis(2,2,6,6-tetramethyl-4-piperidyl) sebacate", "log solubility (log10 mol/L)": "-4.408"}
{"smiles": "Nc1nc(C2CC2)nc(C(=O)O)c1Cl", "log solubility (log10 mol/L)": "-1.881"}

Data: OPERA 2.9 data sets, kmansouri/OPERA on GitHub.